Only a part is listed here, and it is no random draw. Records with an inconclusive call do not appear. The source made the active and inactive calls. Rule for the calls: active = hit-call score of the fitted dose curve at least 0.9, where 1 is the maximum; inconclusive = response in the unintended direction; inactive = score below 0.9.

Amino acid sequences for entries named in this document (tags omitted). A change or cut given only in a name is not applied to a line headed by its entry.
UniProt P03372, whole entry, looked up: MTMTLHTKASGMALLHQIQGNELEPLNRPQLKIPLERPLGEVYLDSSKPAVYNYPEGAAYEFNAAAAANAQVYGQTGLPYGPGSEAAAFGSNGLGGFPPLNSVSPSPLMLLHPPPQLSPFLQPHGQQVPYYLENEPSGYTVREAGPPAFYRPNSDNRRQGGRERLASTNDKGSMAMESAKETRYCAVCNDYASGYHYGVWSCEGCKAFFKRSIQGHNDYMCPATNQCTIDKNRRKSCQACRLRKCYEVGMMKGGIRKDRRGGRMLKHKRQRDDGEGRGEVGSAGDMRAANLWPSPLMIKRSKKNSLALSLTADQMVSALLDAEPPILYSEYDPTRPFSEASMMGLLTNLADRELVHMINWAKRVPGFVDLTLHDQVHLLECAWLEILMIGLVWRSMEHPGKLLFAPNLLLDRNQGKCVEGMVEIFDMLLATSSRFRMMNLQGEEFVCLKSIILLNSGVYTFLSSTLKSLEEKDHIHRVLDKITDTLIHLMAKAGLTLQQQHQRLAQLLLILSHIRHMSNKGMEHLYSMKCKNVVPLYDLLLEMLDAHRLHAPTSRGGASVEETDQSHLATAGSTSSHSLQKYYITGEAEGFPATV
UniProt P10275: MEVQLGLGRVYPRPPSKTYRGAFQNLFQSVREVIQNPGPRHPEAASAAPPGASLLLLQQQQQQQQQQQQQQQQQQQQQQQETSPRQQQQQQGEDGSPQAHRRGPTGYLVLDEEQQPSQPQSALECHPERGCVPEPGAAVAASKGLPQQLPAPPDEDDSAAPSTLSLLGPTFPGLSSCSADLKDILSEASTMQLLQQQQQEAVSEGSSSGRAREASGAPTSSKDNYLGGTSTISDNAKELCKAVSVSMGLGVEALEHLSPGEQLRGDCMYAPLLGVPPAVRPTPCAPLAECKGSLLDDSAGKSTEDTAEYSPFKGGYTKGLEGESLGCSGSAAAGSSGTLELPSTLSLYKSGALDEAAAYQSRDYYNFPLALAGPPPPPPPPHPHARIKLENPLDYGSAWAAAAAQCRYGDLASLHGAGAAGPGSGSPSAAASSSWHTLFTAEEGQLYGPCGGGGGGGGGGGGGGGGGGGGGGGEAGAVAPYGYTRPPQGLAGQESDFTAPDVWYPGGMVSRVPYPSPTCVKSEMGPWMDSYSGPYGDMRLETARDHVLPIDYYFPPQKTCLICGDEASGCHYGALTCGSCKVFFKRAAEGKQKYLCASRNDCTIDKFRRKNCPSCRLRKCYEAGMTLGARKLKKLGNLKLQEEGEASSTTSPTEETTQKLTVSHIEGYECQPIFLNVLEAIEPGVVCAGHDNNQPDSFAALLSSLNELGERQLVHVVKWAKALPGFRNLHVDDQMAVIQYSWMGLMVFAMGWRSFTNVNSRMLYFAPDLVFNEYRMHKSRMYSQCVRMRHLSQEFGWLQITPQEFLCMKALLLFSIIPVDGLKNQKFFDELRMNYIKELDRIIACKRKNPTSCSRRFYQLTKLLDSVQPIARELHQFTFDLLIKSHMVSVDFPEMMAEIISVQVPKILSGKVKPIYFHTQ
UniProt Q92731, whole entry, looked up: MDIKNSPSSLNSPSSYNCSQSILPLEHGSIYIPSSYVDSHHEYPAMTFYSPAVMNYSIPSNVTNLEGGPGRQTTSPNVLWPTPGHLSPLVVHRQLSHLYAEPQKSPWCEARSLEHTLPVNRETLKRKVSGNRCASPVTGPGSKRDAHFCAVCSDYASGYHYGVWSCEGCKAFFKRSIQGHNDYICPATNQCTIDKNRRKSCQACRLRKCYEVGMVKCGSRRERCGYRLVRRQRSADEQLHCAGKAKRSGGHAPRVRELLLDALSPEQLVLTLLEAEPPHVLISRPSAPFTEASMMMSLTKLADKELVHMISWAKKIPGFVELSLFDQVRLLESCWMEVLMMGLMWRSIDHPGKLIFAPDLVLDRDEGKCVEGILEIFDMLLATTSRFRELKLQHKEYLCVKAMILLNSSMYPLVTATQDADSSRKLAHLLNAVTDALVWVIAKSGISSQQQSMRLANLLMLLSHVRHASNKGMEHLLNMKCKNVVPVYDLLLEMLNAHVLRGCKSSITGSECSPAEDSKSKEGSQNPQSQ

One assay deals with Estrogen receptor (Homo sapiens) (UniProt P03372). The assay can be described thus: OT_ER_ERaERa_0480: Odyssey Thera (OT) 8-hour HEK293T Protein-Complementation Assay for Estrogen Receptor-alpha/-alpha Homodimer (AID 2283351).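 Note: rise in fluorescence from reassembled reporter fragments on ERα LBD homodimer in nucleus or whole cell.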 The procedure, abridged:
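HEK293T cells stably expressing the human ERα ligand-binding domain (aa 310-547) as a homodimer PCA were dosed with compound for 8 h. Gain of fluorescence intensity versus DMSO vehicle was read by laser scanning cytometry.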
Regarding `CC(C)CCCCCCCOP(OCCCCCCCC(C)C)Oc1ccccc1`, the molecule was called inactive.
In the case of `ClP(Cl)c1ccccc1`, the AC50 is active: 4.94 µM.
Regarding `O=[P+](Oc1ccccc1)Oc1ccccc1`, the call was inactive.
Take `CN(C(=O)Cc1cccc2occc12)[C@H]1CC[C@@]2(CCCO2)C[C@@H]1N1CCCC1`: the outcome was inactive.

The target of another assay is Androgen Receptor/SRC-1 Co-activator, AR (gene 367) (UniProt P10275). Description: OT_AR_ARSRC1_0960: Odyssey Thera (OT) 16-hour HEK293T Protein-Complementation Assay for Androgen Receptor/SRC-1 Co-activator (AID 2283353).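 Note: actives raise the signal above DMSO so potency reflects increased AR and SRC-1 complex.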 Here is the method: OT_AR_ARSRC1_0960 is a cell-based, single-readout assay that uses HEK293T, a human kidney cell line, with measurements taken at 16 hours after chemical dosing in a 384-well plate.OT_AR_ARSRC1_0960 is one of one assay component(s) measured or calculated from the OT_AR_ARSRC1_0960 assay. It is designed to make measurements of protein fragment complementation, a form of binding reporter, as detected with fluorescence intensity signals by Protein-fragment Complementation technology.Data from the assay component OT_AR_ARSRC1_0960 was analyzed into 1 assay endpoint. This assay endpoint, OT_AR_ARSRC1_0960, was analyzed in the positive analysis fitting direction relative to DMSO as the negative control and baseline of activity. Using a type of binding reporter, measures of receptor for gain-of-signal activity can be used to understand the binding at the pathway-level as they relate to the gene AR. Furthermore, this assay endpoint can be referred to as a primary readout, because the performed assay has only produced 1 assay endpoint. To generalize the intended target to other relatable targets, this assay endpoint is annotated to the nuclear receptor intended target family, where the subfamily is steroidal.
Protein-fragment complementation assay, or PCA, is a method for the identification and quantification of protein-protein interactions. […] Interaction between the bait and the prey proteins brings the fragments of the reporter protein in close proximity to allow them to form a functional reporter protein whose activity can be measured. The OT AR / SRC-1 assay assessed androgen receptor chemical interactions using a rapidly maturing, intensely fluorescent mutant of YFP known as Venus, rationally dissected into two separate fragments. […] Images were acquired on an Evotec Opera at 2 wavelengths (488 and 635nm), and the ratio of fluorescence in the nucleus relative to fluorescence in the cytoplasm (N/C Ratio) in the 488nm channel was calculated for a minimum of 400 cells per image. […]
With `Cc1cc([N+](=O)[O-])cc([N+](=O)[O-])c1O`, the AC50 was active: 73.6 µM.
With `O=C1C2CC=CCC2C(=O)N1SC(Cl)(Cl)C(Cl)Cl` (stereo not drawn), the AC50 was active: 9.1 µM.
For the molecule `O=[P+](Oc1ccccc1)Oc1ccccc1`, the molecule was called inactive.

In the next assay the target is Estrogen receptor (Homo sapiens) + Estrogen receptor beta (Homo sapiens) (UniProt P03372+Q92731). Description: OT_ER_ERaERb_1440: Odyssey Thera (OT) 24-hour HEK293T Protein-Complementation Assay for Estrogen Receptor-alpha/-beta Homodimer (AID 2283356).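 Note: heteromer of ER alpha and ER beta binding domains; hits raise reporter fluorescence and both agonists and antagonists give an increase.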 The procedure, abridged:
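24 h exposure; HEK293T PCA cells with ERα/ERβ LBD fragments; signal rise in nuclear or whole-cell fluorescence over vehicle.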
For `CC(C)CCCCCCCOP(OCCCCCCCC(C)C)Oc1ccccc1`, the outcome was inactive.
For `ClP(Cl)c1ccccc1`, the result was inactive.
With `CN(C(=O)Cc1cccc2occc12)[C@H]1CC[C@@]2(CCCO2)C[C@@H]1N1CCCC1`, the result was inactive.

Another assay has as its target Estrogen receptor beta (Homo sapiens) (UniProt Q92731). Description: OT_ER_ERbERb_0480: Odyssey Thera (OT) 8-hour HEK293T Protein-Complementation Assay for Estrogen Receptor-beta/-beta Homodimer (AID 2283357).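 Note: active means signal gain over DMSO baseline.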 The procedure, abridged:
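Cells (HEK293T, stable ER-beta LBD PCA pair) are treated 8 hours, fixed and Draq5-stained; signal is fluorescence intensity increase relative to vehicle, fitted in the gain direction.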
In the case of `CC(C)CCCCCCCOP(OCCCCCCCC(C)C)Oc1ccccc1`, the molecule was classed as inactive.
For `ClP(Cl)c1ccccc1`, the molecule was classed as inactive.
With `CN(C(=O)Cc1cccc2occc12)[C@H]1CC[C@@]2(CCCO2)C[C@@H]1N1CCCC1`, the molecule was classed as inactive.

These data come from PubChem BioAssay (EPA / NIEHS).
